Assay results from US12435057B2, “Triazole carboxylic acids as LPA antagonists” (BRISTOL-MYERS SQUIBB COMPANY, priority 2019, dated 2025).

The chains behind the UniProt entries cited, without tags or fusion partners.
UniProt Q92633, whole entry: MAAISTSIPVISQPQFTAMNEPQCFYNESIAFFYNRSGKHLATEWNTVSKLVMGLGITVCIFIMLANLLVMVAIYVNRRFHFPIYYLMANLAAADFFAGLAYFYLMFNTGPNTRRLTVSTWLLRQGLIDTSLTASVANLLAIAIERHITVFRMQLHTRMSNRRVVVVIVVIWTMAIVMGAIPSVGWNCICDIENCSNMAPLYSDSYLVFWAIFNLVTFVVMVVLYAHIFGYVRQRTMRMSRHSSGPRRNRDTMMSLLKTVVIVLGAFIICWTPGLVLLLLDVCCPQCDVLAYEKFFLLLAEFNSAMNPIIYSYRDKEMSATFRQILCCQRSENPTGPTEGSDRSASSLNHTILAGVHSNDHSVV

Molecular target: human LPA1 (Homo sapiens, UniProt Q92633)
Test: LPA1 functional antagonist assay (calcium flux)
Details: read-out: hLPA1 IC50; CHO cells overexpressing human LPA1; inhibition of calcium flux induced by 10 nM LPA
Description: The effectiveness of compounds of the present invention as LPA1 inhibitors can be determined in an LPA1 functional antagonist assay as follows: • Chinese hamster ovary cells overexpressing human LPA1 were plated overnight (15,000 cells/well) in poly-D-lysine coated 384-well microplates (Greiner bio-one, Cat #781946) in DMEM/F12 medium (Gibco, Cat #11039). Following overnight culture, cells were loaded with calcium indicator dye (AAT Bioquest Inc, Cat #34601) for 30 minutes at 37° C. The cells were then equilibrated to room temperature for 30 minutes before the assay. Test compounds solubilized in DMSO were transferred to 384 well non-binding surface plates (Corning, Cat #3575) using the Labcyte Echo acoustic dispense and diluted with assay buffer [[…] with calcium/magnesium (Gibco Cat #14025-092), 20 mM HEPES (Gibco Cat #15630-080) and 0.1% fatty acid free BSA (Sigma Cat #A9205)] to a final concentration of 0.5% DMSO. Diluted compounds were added to the cells by FDSS6000 (Hamamatsu) at final concentrations ranging from 0.08 nM to 5 μM. and were then incubated for 20 min at room temperature at which time LPA (Avanti Polar Lipids Cat #857130C) was added at final concentrations of 10 nM to stimulate the cells. […] IC50 values were determined by fitting data to a 4-parameter logistic equation (GraphPad Prism, San Diego CA). b. […]

IC50: 0.682 µM
SMILES: Cc1nc(-c2nnn(C)c2COC(=O)N(C)CC2CCC2)ccc1O[C@@H]1CCO[C@H](C(=O)O)C1 (relative stereo)
